Among the data in PubChem BioAssay AID602250 (The Scripps Research Institute Molecular Screening Center, 2012) are inhibition values, retold here.

Values joined by “and” are separate entries in the source; they are usually repeats but may differ in a detail not shown here. Equal entries are not always repeated. Only a part is listed here, and it is no random draw. Active and inactive are the calls of the source.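 Rule for the calls: active = inhibition above a per-plate cutoff, the plate's mean sample inhibition plus 3 SD (cut at about 24% in these data); inactive = the rest.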

The test can be described thus: calcium signal blockers in parental CHO-K1 cells – cell-based, Fluo-8 calcium fluorescence, full deck, 1536-well, counter-screen for M1 antagonist project, primary screen (AID 602250).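 Note: 0% = DMSO plus EC80 ATP and 100% = DMSO alone without ATP.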 The conditions noted are these: ATP-induced calcium, Fluo-8 fluorescence, at 3 µM, active compounds read high. A general note: The purpose of a counterscreen is to sort out artefacts and off-target activity.
For orientation: inhibition means the change of the read-out against control, counted positive when it falls. For the compound `Cc1ccccc1OP(=O)(Nc1ccccn1)Oc1ccccc1C`, the inhibition is inactive: 2.46%.
Take `CCN(C(=O)COC(=O)C(O)(c1ccccc1)c1ccccc1)c1c(N)n(Cc2ccccc2)c(=O)[nH]c1=O`: the inhibition is inactive: 19.6%.
Take `CCC(=O)N1C2C3N(C(=O)CC)C1C1N(C(=O)CC)C(C(N1C(=O)CC)N3C(=O)CC)N2C(=O)CC`: the inhibition was inactive: -9.47%.
Under `Clc1ccc(N2CCN(Cc3c[nH]c4ncccc34)CC2)cc1` stands inactive: -17.6%.
The same measure for `O=C(OC1CN2CCC1CC2)c1ccccc1` (centres undefined): inactive: -14.7%; for `CC(=O)NC(SC(=S)N(CC(C)C)CC(C)C)C(Cl)(Cl)Cl` (centres undefined): inactive: -1.31%; for `Cc1ccc(OP(=O)(Nc2ccccn2)Oc2ccc(C)cc2)cc1`: inactive: 0.37%.
Take `COC(=O)c1cc2c(s1)N=C(c1ccccc1)N(C)P2(=O)N1CCOCC1` (centres undefined): the inhibition was inactive: -1.07%.
Take `CC1C(=O)OC2CCN3CC4OC4(COC(=O)C(C)(O)C1(C)O)C23` (centres undefined): the inhibition was inactive: -18.5%.
Under `O=P1(N(CCCl)CCCl)OCCC2CCCCN21` (centres undefined) stands inactive: -8.69%; under `C=C1C(=O)OC2CCN3CC=C(COC(=O)C(C)(O)C4(CO4)C1C)C23` (centres undefined), inactive: -5.57%; under `Cc1ccc(NP(=O)(Oc2cccc(C)c2)Oc2cccc(C)c2)nc1`, inactive: -1.23%.
The same measure for `c1ccc(-c2nn[nH]n2)c(-c2nn[nH]n2)c1`: inactive: -14.7%; for `CCNC(=S)/N=C(\N)N[N+](=O)[O-]`: inactive: -6.45%; for `O=C(NC1CCS(=O)(=O)C1)NP(=S)(Oc1ccccc1)Oc1ccccc1` (centres undefined): inactive: 4.68%.
Under `O=C(OC1CN2CCC1CC2)c1cccc(Cl)c1` (centres undefined) stands inactive: -11.5%.
With `C(Cc1nn[nH]n1)Cc1nn[nH]n1`, the inhibition was inactive: -1.39%.
Under `Nc1ccc([As](=O)(O)c2ccc([N+](=O)[O-])cc2)cc1` stands inactive: 2.56%.
Under `O=[As](O)(c1ccccc1)c1ccc(O)cc1` stands inactive: 4.76%; under `O=[N+]([O-])c1ccc(O)c(/C=N/Nc2ccc([N+](=O)[O-])cc2[N+](=O)[O-])c1`, inactive: -9.96%.
The same measure for `CC(=O)NC(SC(=S)N(C)C)C(Cl)(Cl)Cl` (centres undefined): inactive: -4.72%; for `O=[N+]([O-])c1ncn(CCn2cnc([N+](=O)[O-])n2)n1`: inactive: -4.29%; for `C[C@H]1OP(=O)(Oc2ccccc2)[C@H](O)[C@H](O)[C@H]1N=[N+]=[N-]` (some centres undefined): inactive: -1.01%.
As to `O=P(Nc1nc2ccccc2s1)(c1ccccc1)c1ccccc1`, the inhibition was inactive: 1.11%.
Consider `O=P(Nc1ccccn1)(c1ccc(Br)cc1)c1ccc(Br)cc1`, for which the inhibition is inactive: -4.24%.
Under `COc1ccc(N)c([N+](=O)[O-])c1[N+](=O)[O-]` stands inactive: -7.06%; under `Nc1ccc(CCCCOc2ccccc2)cc1`, inactive: -7.32%; under `COc1ccc(C[C@H](C)NC[C@@H](O)c2ccc(O)c(NC=O)c2)cc1`, inactive: -2.84%.
The same measure for `c1nnnn1CCn1cnnn1`: inactive: -6.64%; for `CC(C)C(=O)NC(Sc1ccccc1)C(Cl)(Cl)Cl` (centres undefined): inactive: -6.32%.
The same measure for `O=P(Nc1nccs1)(c1ccccc1)c1ccccc1`: inactive: -12.2%; for `CC(C)/C=N\N=C(\N)N[N+](=O)[O-]`: inactive: -13%; for `CN(C(=O)Cc1ccc(Cl)c(Cl)c1)[C@@H]1CCCC[C@H]1N1CCCC1`: inactive: 13.6%.
For the compound `CC1(CBr)Cn2c(nc3ccccc3c2=O)S1` (centres undefined), the inhibition was inactive: 17.6%.
As to `COc1ccccc1CNC(=O)COC(=O)C(O)(c1ccccc1)c1ccccc1`, the inhibition is inactive: -3.48%.
Under `CC(C)(C)C(=O)NC(Sc1ncccn1)C(Cl)(Cl)Cl` (centres undefined) stands inactive: -2.82%.
Under `O=P1(N(CCCl)CCCl)NCCC(C(F)(F)F)O1` (centres undefined) stands inactive: -3.03%.
Under `Clc1n[nH]nc1-c1nn[nH][15n]1` stands inactive: 17.3%.
Consider `CCOP(=O)(NC(=NC(C)c1ccccc1)NC(C)c1ccccc1)OCC` (centres undefined), for which the inhibition was inactive: 9.94%.
Under `O=P1(Nc2ccccn2)COc2ccccc2OC1` stands inactive: -5.86%; under `CCC1=CC2Cc3nc4ccc(Cl)cc4c(N)c3C(C1)C2` (centres undefined), inactive: -13.2%; under `CCOP(=O)(Nc1ccc(C)cn1)OCC`, inactive: -7.55%.
Under `CN(CCCl)Cc1cc(Cl)c(NC2=NCCN2)c(Cl)c1` stands inactive: -7.75%.
Under `Nc1cccc([As](=O)(O)c2ccccc2)c1` stands inactive: -6.61%; under `Cc1ccc(OCC(=O)OC2CN3CCC2CC3)cc1` (centres undefined), inactive: -15.9%; under `O=[As](O)(c1cccs1)c1cccs1`, inactive: 1.79%.
With `O=P1(Nc2ccc(Br)cn2)COc2ccccc2OC1`, the inhibition was inactive: -1.93%.
Under `NS(=O)(=O)c1cccc(NC(=O)COC(=O)C(O)(c2ccccc2)c2ccccc2)c1` stands inactive: -5.39%; under `Cc1ccc(S(=O)(=O)N(CCCN)CCCc2c(C)nc(N)[nH]c2=O)cc1`, inactive: 0.92%; under `O=P1(Nc2ncccn2)COc2ccccc2OC1`, inactive: -15.8%.
Turning to `CCCC1OP(=O)(Nc2ccccc2)OCC1CC` (centres undefined), the inhibition is inactive: -17.2%.
The same measure for `O=C(/C=C/c1ccccc1)OC1CN2CCC1CC2` (centres undefined): inactive: -12.1%.
Under `CC1CCC(C(C)C)C(OP(=O)(Nc2ccccn2)c2ccccc2)C1` (centres undefined) stands inactive: 5.97%; under `Cc1ccc(C(=O)OC2CN3CCC2CC3)cc1` (centres undefined), inactive: -12.6%; under `Cc1nn(-c2ccccc2)c2c1P(=O)(N1CCOCC1)N(C)C(c1ccccc1)=N2` (centres undefined), inactive: 4.38%.
Under `CN(C(=O)Cc1ccccc1)[C@@H]1CC[C@]2(CCCO2)C[C@H]1N1CCCC1` stands inactive: -9.03%; under `CCOP1(=S)c2c(C)nn(CCC#N)c2N=C(c2ccc(F)cc2)N1C` (centres undefined), inactive: -12%.
For the compound `N#CCCN(C(=O)COC(=O)C(O)(c1ccccc1)c1ccccc1)c1ccc(F)cc1`, the inhibition is inactive: -1.73%.
Take `CN(C(=O)Cc1ccc(Cl)c(Cl)c1)[C@H]1CC[C@@]2(CCCO2)C[C@@H]1N1CCCC1`: the inhibition was inactive: -8.38%.
Under `O=[N+]([O-])c1ccc2c(c1)nnn2O` stands inactive: -14.8%; under `CN(C)C(=O)c1cc([N+](=O)[O-])cc2c1-c1c(cc([N+](=O)[O-])cc1[N+](=O)[O-])C2=O`, inactive: 10.9%; under `NC(=O)Nc1ccc([As](=O)(O)O)cc1`, inactive: -15.4%.
The same measure for `COc1ccc(CC(C)NCC(O)c2ccc(O)c(NC=O)c2)cc1` (centres undefined): inactive: -2.05% and inactive: 6.3%; for `Nc1ccccc1[As](=O)(O)c1ccccc1`: inactive: -7.76%.
Under `O=C(O)COc1ccc([As](=O)(O)O)cc1[N+](=O)[O-]` stands inactive: 7.17%.
Consider `O=P(Nc1nccs1)(Oc1ccccc1)Oc1ccccc1`, for which the inhibition is inactive: 2.93%.
The same measure for `O=P(Nc1nccs1)(c1ccccc1)c1nc2ccccc2s1` (centres undefined): inactive: -6.88%; for `CCOP1(=S)c2c(C)nn(CCC#N)c2N=C(c2ccccc2F)N1C` (centres undefined): inactive: -9.71%.
Take `CS(=O)(=O)c1cc([N+](=O)[O-])c2no[n+]([O-])c2c1`: the inhibition is inactive: -5.21%.
For the compound `CCOP(=O)(Nc1cccc2ccccc12)OCC`, the inhibition is inactive: -10.8%.
The same measure for `COc1cc(C2NCCC3(OCCO3)C2(C)C)cc(OC)c1OC` (centres undefined): inactive: -3.12%.
The same measure for `Cc1ccc(NCCc2c([N+](=O)[O-])cc([N+](=O)[O-])cc2[N+](=O)[O-])cc1`: inactive: -8.13%.
Under `Nc1cccc2c([As](=O)(O)O)cccc12` stands inactive: -7.91%; under `C[C@H]1C(=O)O[C@@H]2CCN3CC=C(COC(=O)[C@](C)(O)[C@]1(C)O)[C@H]23`, inactive: -0.43%.
With `CCCOP(=S)(Nc1nc(N)cc(=O)[nH]1)OCCC`, the inhibition is inactive: -11.9%.
The same measure for `Cc1cccc(OCC(=O)OC2CN3CCC2CC3)c1` (centres undefined): inactive: -16%; for `O=[As](O)(c1cccc(O)c1)c1cccc(O)c1`: inactive: -5.08%; for `O=C(OC1CN2CCC1CC2)c1ccc(Cl)cc1` (centres undefined): inactive: -2.85%.
As for `CS(=O)(=O)c1ccc(Cl)c(NC(=O)COC(=O)C(O)(c2ccccc2)c2ccccc2)c1`, the inhibition was inactive: 2.08%.
In the case of `O=[As](O)(O)c1cccnc1`, the inhibition was inactive: -11.2%.
`O=[N+]([O-])c1cc(Oc2ccc([N+](=O)[O-])cc2C(F)(F)F)cc([N+](=O)[O-])c1`: the inhibition was inactive: -3.72%.
The same measure for `COc1ccc(N/C(=N/P(=O)(N2CCOCC2)N2CCOCC2)N2CCOCC2)cc1`: inactive: -2.69%.
Under `O=P1(N(CCCl)CCCl)OCCCN1CCCl` (centres undefined) stands inactive: -20.2%; under `O=P1(N(CCCl)CCCl)Nc2ccccc2N1`, inactive: -4.51%; under `COc1cc(I)ccc1[As](=O)(O)O`, inactive: -7.93%.
The same measure for `COc1ccc2nc(NP(=O)(c3ccccc3)c3ccccc3)sc2c1`: inactive: 3.57%; for `Cc1c2c(nc3ccccc13)SC(C(Cl)Cl)C2` (centres undefined): inactive: 0.81%; for `Cc1cc(=O)[nH]c(N[N+](=O)[O-])n1`: inactive: 6.51%.
On to `O=[N+]([O-])c1cc([N+](=O)[O-])c(-c2ccn[nH]2)s1`, for which the inhibition is inactive: 4.48%.
The same measure for `CC(C)NC(=O)NP(=O)(Oc1ccccc1)Oc1ccccc1`: inactive: -9.6%; for `CCN(CC)C(=S)SC(NC=O)C(Cl)(Cl)Cl` (centres undefined): inactive: -9.07%; for `O=C(OC1CN2CCC1CC2)c1cccc2[nH]cnc12` (centres undefined): inactive: 5.08%.
Under `ClCCSc1nnc(-c2cccnc2)o1` stands inactive: -6.21%.
The same measure for `COC(=O)C1(C)COP(=O)(N2CCCCCC2)OC1` (centres undefined): inactive: -19.3%.
For the compound `CC(C)c1ccc(OP(=O)(Nc2ccccn2)Oc2ccccc2F)cc1` (centres undefined), the inhibition is inactive: -5.14%.
The same measure for `CC(Cc1ccc(O)cc1)NCC(O)c1cc(O)cc(O)c1` (centres undefined): inactive: -4.63%; for `[N-]=[N+]=NC1CCCCC1NC(=O)c1cc([N+](=O)[O-])cc([N+](=O)[O-])c1` (centres undefined): inactive: -9.56%.
The same measure for `Cc1ccc(OP(=O)(Nc2ccc([N+](=O)[O-])cn2)Oc2ccc(C)cc2)cc1`: inactive: -4.02%.
Under `Cc1ccc2nc3c(c(C)c2c1)CC(C(Cl)Cl)S3` (centres undefined) stands inactive: -10.4%.
